Target: T1, endogenous Rab12 of RBL cells (rat, UniProt P35284 49-291, limits assumed)
T1 construct: Total Rab12 pulled down from cell lysates (blot reprobed with anti-Rab12)
T1 sequence (looked up): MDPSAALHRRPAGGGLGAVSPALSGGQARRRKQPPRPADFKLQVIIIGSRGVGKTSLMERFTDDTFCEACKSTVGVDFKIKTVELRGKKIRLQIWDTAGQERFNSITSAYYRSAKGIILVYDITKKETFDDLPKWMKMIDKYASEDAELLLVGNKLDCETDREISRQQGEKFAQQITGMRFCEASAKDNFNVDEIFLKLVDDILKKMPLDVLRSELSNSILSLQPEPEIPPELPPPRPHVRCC
Assay: GST pulldown from resting RBL cell lysates, anti-Rab12 immunoblot
Experimental: Cells were then lysed and 500 μg of cell lysate were incubated overnight at 4° C. with either GST, GST-RILP, GST-RILP-L1 or GST-RILP-L2, immobilized on glutathione agarose beads, as indicated. At the end of the incubation period, beads were sedimented by centrifugation at 5000×g for 5 minutes at 4° C., washed four times with buffer containing 50 mM Hepes pH 7.4, 150 mM NaCl, 1 mM MgCl₂, 0.2% Triton X-100, protease inhibitor mixture, 1 mM PMSF, 2 mM Na₃VO₄, 10 mM NaPPi and 80 mM β-glycerophosphate and suspended in 1× sample buffer and boiled for 7 minutes. Proteins were resolved by SDS-PAGE and analyzed by immunoblotting with the anti-phosphoRab12 antibodies, followed by reprobing with anti Rab12 antibodies, as indicated. Representative blots are shown. Similar results were obtained in two separate experiments.
Next, it was assessed whether […] any impact on Rab12 interactions with its RILP family effectors. To this end, lysates derived from resting RBL cells or RBL cells that were triggered with either IgE/Ag or Ion/TPA, were subjected to pulldown assays by chimeric proteins consisting of GST-fused to either RILP, RILP-L1, or RILP-L2, or control GST. […] Therefore, under these conditions, the efficacy of Rab12-effector interactions was RILP-L1>RILP>>>RILP-L2.

B1: GST (control) (other, UniProt P08515 1-218, looked up)
chain: MSPILGYWKIKGLVQPTRLLLEYLEEKYEEHLYERDEGDKWRNKKFELGLEFPNLPYYIDGDVKLTQSMAIIRYIADKHNMLGGCPKERAEISMLEGAVLDIRYGVSRIAYSKDFETLKVDFLSKLPEMLKMFEDRLCHKTYLNGDHVTHPDFMLYDALDVVLYMDPMCLDAFPKLVCFKKRIEAIPQIDKYLKSSKYIAWPLQGWQATFGGGDHPPK
notes: Negative control of the pulldown assays; also called control GST
B1: no binding.
